Measured properties of organic chemicals

From the experimental data distributed with OPERA 2.9.

Melting points are in °C.
The boiling point refers to atmospheric pressure (760 mmHg), by the definition of the set.
The octanol-water partition coefficient is given as log10; larger values mean a more lipophilic compound.
Solubility in water is on a log10 molar scale (set defined at 25 °C).
Vapor pressures (log10 mmHg) refer to near room temperature, 15 to 30 °C; higher is more volatile.
Henry's law constant (air-water partitioning) is log10 of atm·m3/mol, nominally at 25 °C.
fu is the fraction unbound in human plasma, from 0 to 1.
Clint is human hepatic intrinsic clearance in µL/min per million cells; 0 means that no clearance was seen.

* CC(Cl)C(=O)O (stereo not given) [2-Chloropropanoic acid]: logP 0.775; vapor pressure 0.057 (log10 mmHg)
* O=C(O)C(F)(F)C(F)(F)F [Perfluoropropanoic acid]: vapor pressure 1.536 (log10 mmHg); log H -5.953 (log10 atm·m3/mol)
* CC(=O)CC(c1ccco1)c1c(O)c2ccccc2oc1=O (stereo not given) [Coumafuryl]: log S -2.74 (log10 mol/L); vapor pressure -10.66 (log10 mmHg)
* C(OCC1CO1)C(COCC1CO1)OCC1CO1 (stereo not given): MP -50.15 °C; BP 280.6 °C; vapor pressure -2.442 (log10 mmHg)
* CC(C)(c1ccc(O)cc1)c1cccc(C(C)(C)c2ccc(O)cc2)c1 [1,3-Bis[1-methyl-1-(4-hydroxyphenyl)ethyl]benzene]: log S -6.239 (log10 mol/L); vapor pressure -5.354 (log10 mmHg)
* CCOP(=S)(Oc1ccc(C#N)cc1)c1ccccc1 (stereo not given) [Cyanofenphos]: vapor pressure -5.917 (log10 mmHg); log H -7.154 (log10 atm·m3/mol)
* COP1(=S)OCc2ccccc2O1 (stereo not given) [Dioxabenzofos]: vapor pressure -2.654 (log10 mmHg); log H -4.807 (log10 atm·m3/mol)
* N#CCCSCCC#N [3,3'-Thiodipropionitrile]: log S -0.749 (log10 mol/L); vapor pressure -4.262 (log10 mmHg)
* C[C@]12CC[C@@H]3c4ccc(OC(=O)N(CCCl)CCCl)cc4CC[C@H]3[C@@H]1CC[C@@H]2O [Estramustine]: logP 5.7; log S -6.058 (log10 mol/L)
* COc1cccc(C(=O)NN(C(=O)c2cc(C)cc(C)c2)C(C)(C)C)c1C [Methoxyfenozide]: vapor pressure -7.955 (log10 mmHg); log H -8.791 (log10 atm·m3/mol); fu 0.06087; Clint 16.2 µL/min/10^6 cells
* O=S(=O)(Cl)c1ccccc1 [Benzenesulfonyl chloride]: logP 3.39; log S -1.885 (log10 mol/L)
* CCN(C(C)=O)c1cccc(-c2ccnc3c(C#N)cnn23)c1 [Zaleplon]: log S -3.879 (log10 mol/L); Clint 2.843 µL/min/10^6 cells
* CC(C)Oc1cc(-n2nc(C(C)(C)C)oc2=O)c(Cl)cc1Cl [Oxadiazon]: fu 0.00307; Clint 0 µL/min/10^6 cells
* C=CCCl [Allyl chloride]: logP 2.1; log S -1.36 (log10 mol/L)
* O=C(O)CCP(=O)(O)c1ccccc1 [3-[Hydroxy(phenyl)phosphoryl]propanoic acid]: BP 310 °C; vapor pressure -7.046 (log10 mmHg)
* CC(C(=O)O)N(C(=O)c1ccccc1)c1ccc(F)c(Cl)c1 (stereo not given) [Flamprop]: log S -4.25 (log10 mol/L); vapor pressure -8.747 (log10 mmHg)
* Brc1cc(Br)c(Oc2cc(Br)c(Br)cc2Br)cc1Br [2,2',4,4',5,5'-Hexabromodiphenyl ether]: MP 163 °C; log S -8.869 (log10 mol/L); vapor pressure -7.188 (log10 mmHg)
* C=C(C)C1CC=C(C=O)CC1 (stereo not given) [Perillaldehyde]: log S -2.97 (log10 mol/L); vapor pressure -1.334 (log10 mmHg)
* O=c1[nH]c2cc(Cl)ccc2n1C1CCNCC1 [5-Chloro-1-(4-piperidyl)-1H-benzimidazol-2(3H)-one]: logP -0.15; log S -2.661 (log10 mol/L); vapor pressure -9.837 (log10 mmHg)
* C#C[C@]1(O)CC[C@H]2[C@@H]3C=CC4=CC(=O)CC[C@@H]4[C@H]3CC[C@@]21C [(17alpha)-17-Hydroxy-19-norpregna-4,6-dien-20-yn-3-one]: MP 242.9 °C; logP 2.6; log S -5.254 (log10 mol/L); vapor pressure -9.639 (log10 mmHg)
* CC(C)(C)c1ccc(O)c(-n2nc3ccccc3n2)c1 [Phenol, 2-(2H-benzotriazol-2-yl)-4-(1,1-dimethylethyl)-]: log S -6.755 (log10 mol/L); vapor pressure -4.663 (log10 mmHg)
* Cc1nc(N(C)C)nc(OC(=O)N(C)C)c1C [Pirimicarb]: fu 0.1626; Clint 22.53 µL/min/10^6 cells
* CC(C)(C)OOC(=O)C(C)(C)C [Propaneperoxoic acid, 2,2-dimethyl-, 1,1-dimethylethyl ester]: logP 3.17; log S -2.068 (log10 mol/L)
* C=C(F)C(F)(F)F [2,3,3,3-Tetrafluoropropene]: logP 2; log S -2.76 (log10 mol/L)
* CCOC(=O)CP(=O)(OCC)OCC [Triethyl phosphonoacetate]: logP 1.13; vapor pressure -2.34 (log10 mmHg)
* FC(F)(F)Br [Bromotrifluoromethane]: fu 0.838; Clint 1 µL/min/10^6 cells
* CCOP(=S)(OCC)SCC(=O)NC(C)C [Prothoate]: vapor pressure -4.011 (log10 mmHg); log H -10.18 (log10 atm·m3/mol)
* CC(C)N(C(=O)CCl)c1ccccc1 [Propachlor]: fu 0.345; Clint 69.7 µL/min/10^6 cells

A selection of 4 entries from above:

* CC(Cl)C(=O)O (stereo not given) [2-Chloropropanoic acid]: logP 0.775; vapor pressure 0.057 (log10 mmHg)
* O=c1[nH]c2cc(Cl)ccc2n1C1CCNCC1 [5-Chloro-1-(4-piperidyl)-1H-benzimidazol-2(3H)-one]: logP -0.15; log S -2.661 (log10 mol/L); vapor pressure -9.837 (log10 mmHg)
* CC(C)(c1ccc(O)cc1)c1cccc(C(C)(C)c2ccc(O)cc2)c1 [1,3-Bis[1-methyl-1-(4-hydroxyphenyl)ethyl]benzene]: log S -6.239 (log10 mol/L); vapor pressure -5.354 (log10 mmHg)
* CC(C)(C)c1ccc(O)c(-n2nc3ccccc3n2)c1 [Phenol, 2-(2H-benzotriazol-2-yl)-4-(1,1-dimethylethyl)-]: log S -6.755 (log10 mol/L); vapor pressure -4.663 (log10 mmHg)

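These are experimental values that the OPERA curators gathered from public databases to train and test their QSAR models. A listed value is a point estimate from one report or more. Method, purity and exact conditions of the single measurements are not given. A value may pool stereoisomers or salt forms, and the file does not say which form was measured. Some upstream entries may be estimates or bounds without being marked so.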